From article PMC10580381 (ACS Pharmacology & Translational Science, 2023)

Assays:
H1650 cells = details: H1650, gefitinib 5 μM alone, 48 h
HCC827 cells = experiment: Annexin V/7-AAD apoptosis assay, HCC827; type: cell-based, human; details: HCC827, gefitinib 0.2 μM alone, 48 h

## COc1cc2ncnc(Nc3ccc(F)c(Cl)c3)c2cc1OCCCN1CCOCC1 [gefitinib]
H1650 cells
  apoptotic cell population: 12.4 ± 0.9%
HCC827 cells
  apoptotic cell population: 67.8 ± 3.9%
